Earlier results, collected in US20150080844A1, “THERAPY FOR KIDNEY DISEASE AND/OR HEART FAILURE BY INTRADERMAL INFUSION” (Medtronic, Inc., priority 2012, published 2015).

Conditions: cited from earlier work

Question: Which results are given for insulin?
Answer: absorption rate by intradermal delivery (in words) (Pettis et al.): increased absorption rate; bioavailability (in words) (intradermal delivery, literature): inability to enhance bioavailability
